US20260384451A1, “6-ARYL IMIDAZO[2,1-B]THI/OpXAZOLE-2-CARBOXILIC ACID DERIVATIVE AND PHARMACEUTICAL COMPOSITION FOR TREATING ALZHEIMER'S DISEASE CONTAINING SAME AS ACTIVE INGREDIENT” (published 2026)
Like-named read-outs stand apart in the source and are kept apart here.

Protein sequences, listed by entry. Tags and fused reporters are not part of them.
UniProt P53779, whole entry: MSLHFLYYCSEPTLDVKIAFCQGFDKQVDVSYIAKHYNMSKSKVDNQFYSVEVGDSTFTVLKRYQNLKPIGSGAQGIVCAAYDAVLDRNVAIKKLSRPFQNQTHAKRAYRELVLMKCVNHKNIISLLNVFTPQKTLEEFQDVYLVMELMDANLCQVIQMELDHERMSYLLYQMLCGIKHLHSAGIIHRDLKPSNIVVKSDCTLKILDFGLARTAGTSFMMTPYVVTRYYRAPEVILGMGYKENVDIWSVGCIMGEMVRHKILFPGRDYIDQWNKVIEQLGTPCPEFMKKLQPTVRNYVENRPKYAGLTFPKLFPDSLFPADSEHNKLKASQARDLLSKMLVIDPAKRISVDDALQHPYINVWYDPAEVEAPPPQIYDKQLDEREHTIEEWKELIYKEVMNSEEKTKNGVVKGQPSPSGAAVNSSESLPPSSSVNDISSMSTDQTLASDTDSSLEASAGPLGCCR
UniProt Q16539, whole entry: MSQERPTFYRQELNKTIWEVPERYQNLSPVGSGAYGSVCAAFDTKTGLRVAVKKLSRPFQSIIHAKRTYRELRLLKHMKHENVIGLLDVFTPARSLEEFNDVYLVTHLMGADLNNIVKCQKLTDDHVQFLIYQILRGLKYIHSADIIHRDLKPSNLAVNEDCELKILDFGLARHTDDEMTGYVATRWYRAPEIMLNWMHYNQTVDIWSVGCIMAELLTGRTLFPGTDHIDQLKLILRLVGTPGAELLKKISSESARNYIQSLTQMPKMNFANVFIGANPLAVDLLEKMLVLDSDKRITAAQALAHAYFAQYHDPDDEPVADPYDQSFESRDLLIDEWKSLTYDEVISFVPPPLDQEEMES
UniProt P45983, whole entry: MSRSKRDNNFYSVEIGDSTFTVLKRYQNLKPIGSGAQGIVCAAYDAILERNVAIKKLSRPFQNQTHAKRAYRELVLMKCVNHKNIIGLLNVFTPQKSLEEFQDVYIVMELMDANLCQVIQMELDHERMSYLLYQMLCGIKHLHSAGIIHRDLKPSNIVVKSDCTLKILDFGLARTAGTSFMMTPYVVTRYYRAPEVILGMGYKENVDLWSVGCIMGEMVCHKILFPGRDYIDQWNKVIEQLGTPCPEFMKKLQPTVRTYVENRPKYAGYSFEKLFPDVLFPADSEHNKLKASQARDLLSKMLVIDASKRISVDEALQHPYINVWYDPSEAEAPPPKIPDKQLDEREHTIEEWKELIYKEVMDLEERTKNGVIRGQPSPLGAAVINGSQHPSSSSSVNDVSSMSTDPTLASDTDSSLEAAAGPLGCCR
UniProt P45984, whole entry: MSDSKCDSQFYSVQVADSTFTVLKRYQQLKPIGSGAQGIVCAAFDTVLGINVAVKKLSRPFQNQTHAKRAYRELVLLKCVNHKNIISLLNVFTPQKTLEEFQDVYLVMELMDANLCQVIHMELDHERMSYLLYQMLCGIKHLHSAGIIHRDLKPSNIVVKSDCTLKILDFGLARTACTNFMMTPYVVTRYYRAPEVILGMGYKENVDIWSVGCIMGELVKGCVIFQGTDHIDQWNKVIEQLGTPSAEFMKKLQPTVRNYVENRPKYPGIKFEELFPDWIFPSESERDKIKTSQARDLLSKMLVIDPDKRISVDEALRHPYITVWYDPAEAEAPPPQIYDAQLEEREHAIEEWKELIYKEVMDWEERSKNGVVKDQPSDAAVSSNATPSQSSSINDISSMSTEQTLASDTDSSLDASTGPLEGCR

Experiments:
JNK3 = JNK3 (Homo sapiens, UniProt P53779); experiment: In vitro JNK3 inhibitory activity assay
p38α = p38α (Homo sapiens, UniProt Q16539); experiment: Activity of major compounds against JNK1/2/p38α: p38α (selectivity versus JNK3); conditions: ratio of IC50 p38α/JNK3
JNK1 = JNK1 (Homo sapiens, UniProt P45983); experiment: Activity of major compounds against JNK1/2/p38α: JNK1 (selectivity versus JNK3); conditions: ratio of IC50 JNK1/JNK3
JNK2 = JNK2 (Homo sapiens, UniProt P45984); experiment: Activity of major compounds against JNK1/2/p38α: JNK2 (selectivity versus JNK3); conditions: ratio of IC50 JNK2/JNK3
[1] = read-out: JNK3, Table 8, class symbols
[2] = read-out: JNK3 inhibitory activity (IC50), Table 3, imidazo[2,1-b]oxazole derivatives, class symbols

Compound	IC50 (JNK3; [1]) [nM]	IC50 (JNK3; [2]) [nM]	Selectivity (IC50 fold) p38α/JNK3 (p38α) [fold]	Selectivity (IC50 fold) JNK1/JNK3 (JNK1) [fold]	Selectivity (IC50 fold) JNK2/JNK3 (JNK2) [fold]
CCOC(=O)c1cn2c(-c3ccnc(N[C@@H]4CCCN(C(=O)N(C)C)C4)n3)c(-c3ccc(Cl)c(Cl)c3)nc2o1	< 1	> 10000	246	113	18
CNC(=O)c1cn2c(-c3ccnc(N[C@@H]4CCCN(C(=O)C5CC5)C4)n3)c(-c3ccc(Cl)c(Cl)c3)nc2o1	< 1	< 1	1245	389	28
